From patent publication US20170037028A1 (BAYER PHARMA AKTIENGESELLSCHAFT, priority 2013, published 2017)
pIC50: −log10 of the molar value.

Sequences of proteins named here, by UniProt entry; tags and fusion partners are left off.
UniProt P11166, whole entry: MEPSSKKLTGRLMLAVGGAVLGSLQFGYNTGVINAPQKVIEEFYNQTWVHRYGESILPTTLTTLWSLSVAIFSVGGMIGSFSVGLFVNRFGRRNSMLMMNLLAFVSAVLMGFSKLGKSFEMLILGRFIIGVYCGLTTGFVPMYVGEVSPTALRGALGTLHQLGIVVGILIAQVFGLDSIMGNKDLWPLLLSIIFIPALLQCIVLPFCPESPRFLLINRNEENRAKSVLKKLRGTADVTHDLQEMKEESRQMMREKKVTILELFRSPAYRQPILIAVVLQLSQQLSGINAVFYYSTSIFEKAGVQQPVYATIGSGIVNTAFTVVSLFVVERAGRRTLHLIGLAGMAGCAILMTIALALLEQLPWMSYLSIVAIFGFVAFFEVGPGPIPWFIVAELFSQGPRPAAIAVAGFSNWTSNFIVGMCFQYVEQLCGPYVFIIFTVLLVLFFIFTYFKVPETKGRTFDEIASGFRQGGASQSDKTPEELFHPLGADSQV

Target: GLUT1 (Homo sapiens, UniProt P11166)
Test: Indirect measurement of GLUT1 activity by quantification of intracellular ATP levels (glucose induced ATP increase)
Type: cell-based
Conditions: read-out: IC50 regarding glucose induced ATP increase (GLUT1 inhibition); DLD1 cells; 0.1 mM glucose, 1 μM Rotenone, 15 min; CellTiter-Glo ATP readout; IC50 values standardized to cytochalasin B IC50 values

With `Cc1ccc2nc(C)cc(C(=O)Nc3c(C)nn(Cc4ccc(Cl)cc4Cl)c3C)c2c1` the pIC50 was 6.40.
For `Cc1ccc2nc(C)cc(C(=O)Nc3c(C)nn(Cc4ccc5c(c4)C(C)(C)CCC5(C)C)c3C)c2c1`, the pIC50 was 5.41.
